Reference: patent US20250375530A1 (ALMAC DISCOVERY, published 2025)

Chains of the proteins cited; added tags and fusions are not shown. A line that says so, or that is headed by a name, gives the form on record, which may keep a tag or linker.
human ROR1-Fc (CHO), one chain, as listed by the source limits assumed: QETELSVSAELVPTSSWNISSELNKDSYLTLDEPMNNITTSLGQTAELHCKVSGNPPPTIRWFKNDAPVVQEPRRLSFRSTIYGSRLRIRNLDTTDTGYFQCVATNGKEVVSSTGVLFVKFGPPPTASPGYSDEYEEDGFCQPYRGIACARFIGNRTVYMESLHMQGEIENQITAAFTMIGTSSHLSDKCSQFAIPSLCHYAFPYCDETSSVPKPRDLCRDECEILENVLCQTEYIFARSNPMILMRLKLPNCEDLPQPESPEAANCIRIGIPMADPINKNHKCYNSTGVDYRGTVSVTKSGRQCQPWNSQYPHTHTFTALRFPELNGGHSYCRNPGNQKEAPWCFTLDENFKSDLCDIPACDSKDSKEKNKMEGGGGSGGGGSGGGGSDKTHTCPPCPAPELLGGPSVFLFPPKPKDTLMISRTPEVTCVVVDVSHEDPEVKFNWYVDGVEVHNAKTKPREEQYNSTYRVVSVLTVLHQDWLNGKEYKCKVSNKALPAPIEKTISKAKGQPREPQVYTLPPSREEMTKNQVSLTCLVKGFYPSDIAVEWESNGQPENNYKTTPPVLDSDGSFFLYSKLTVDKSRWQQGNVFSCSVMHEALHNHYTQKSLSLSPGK

B1: P3A1G1AE3-G3CPG4 (linker PGVQPAPGGGGS) (VNAR, not shown: small tags and cut ends)
chain: TRVDQSPSSLSASVGDRVTITCVLTGTRYGLYSTYWYRKNPGSSDEERISISGRYSESVNKGTKSFTLTISSLQPEDSATYYCRAREARHPWLRQWYDGAGTKVEIKPGVQPAPGGGGSTRVDQSPSSLSASVGDRVTITCVLTDANYGLAATYWYRKNPGSSNKERISISGRYSESVNKGTMSFTLTISSLQPEDSATYYCRAYPWGAGAPYNVQWYDGAGTKVEIK
notes: Bi-paratopic VNAR-VNAR fusion
B2: G3CPG4-P3A1G1AE3 (linker PGVQPAPGGGGS) (VNAR, not shown: small tags and cut ends)
chain: TRVDQSPSSLSASVGDRVTITCVLTDANYGLAATYWYRKNPGSSNKERISISGRYSESVNKGTMSFTLTISSLQPEDSATYYCRAYPWGAGAPYNVQWYDGAGTKVEIKPGVQPAPGGGGSTRVDQSPSSLSASVGDRVTITCVLTGTRYGLYSTYWYRKNPGSSDEERISISGRYSESVNKGTKSFTLTISSLQPEDSATYYCRAREARHPWLRQWYDGAGTKVEIK
notes: Bi-paratopic VNAR-VNAR fusion
B3: P3A1G1AE3-G3CPG4 (linker PGVQPCPGGGGGS) (VNAR, not shown: small tags and cut ends)
chain: TRVDQSPSSLSASVGDRVTITCVLTGTRYGLYSTYWYRKNPGSSDEERISISGRYSESVNKGTKSFTLTISSLQPEDSATYYCRAREARHPWLRQWYDGAGTKVEIKPGVQPCPGGGGGSTRVDQSPSSLSASVGDRVTITCVLTDANYGLAATYWYRKNPGSSNKERISISGRYSESVNKGTMSFTLTISSLQPEDSATYYCRAYPWGAGAPYNVQWYDGAGTKVEIK
notes: Bi-paratopic fusion with Cys-containing linker
B4: G3CPG4-P3A1G1AE3 (linker PGVQPCPGGGGGS) (VNAR, not shown: small tags and cut ends)
chain: TRVDQSPSSLSASVGDRVTITCVLTDANYGLAATYWYRKNPGSSNKERISISGRYSESVNKGTMSFTLTISSLQPEDSATYYCRAYPWGAGAPYNVQWYDGAGTKVEIKPGVQPCPGGGGGSTRVDQSPSSLSASVGDRVTITCVLTGTRYGLYSTYWYRKNPGSSDEERISISGRYSESVNKGTKSFTLTISSLQPEDSATYYCRAREARHPWLRQWYDGAGTKVEIK
notes: as for B3

Columns and labels:
human ROR1-Fc (CHO) [1] = molecular target: T1, human ROR1-Fc (CHO) (human); test: BLI, hROR1-hFc immobilised
T1 construct: also called hROR1-Fc; huROR1-Fc

human ROR1-Fc (CHO) [2] = molecular target: T1, human ROR1-Fc (CHO); test: BLI, hROR1

| Binder | Kd (human ROR1-Fc (CHO) [1]) [nM] | Kd (human ROR1-Fc (CHO) [2]) [nM] |
| --- | --- | --- |
| B1 | 0.58 | – |
| B2 | 0.53 | – |
| B3 | – | 0.24 |
| B4 | – | 0.28 |
